The list shows a part of the results, in another mix than the full data. Some results for these compounds are left out of this collection, so the calls shown say nothing about other tests. Calls of active or inactive are those of the source. No stated cut-off is given here; in the data, active means inhibition above about 80%; inactive means the rest.

Sequences of proteins named here, by UniProt entry; tags and fusion partners are left off.
UniProt P34913, whole entry: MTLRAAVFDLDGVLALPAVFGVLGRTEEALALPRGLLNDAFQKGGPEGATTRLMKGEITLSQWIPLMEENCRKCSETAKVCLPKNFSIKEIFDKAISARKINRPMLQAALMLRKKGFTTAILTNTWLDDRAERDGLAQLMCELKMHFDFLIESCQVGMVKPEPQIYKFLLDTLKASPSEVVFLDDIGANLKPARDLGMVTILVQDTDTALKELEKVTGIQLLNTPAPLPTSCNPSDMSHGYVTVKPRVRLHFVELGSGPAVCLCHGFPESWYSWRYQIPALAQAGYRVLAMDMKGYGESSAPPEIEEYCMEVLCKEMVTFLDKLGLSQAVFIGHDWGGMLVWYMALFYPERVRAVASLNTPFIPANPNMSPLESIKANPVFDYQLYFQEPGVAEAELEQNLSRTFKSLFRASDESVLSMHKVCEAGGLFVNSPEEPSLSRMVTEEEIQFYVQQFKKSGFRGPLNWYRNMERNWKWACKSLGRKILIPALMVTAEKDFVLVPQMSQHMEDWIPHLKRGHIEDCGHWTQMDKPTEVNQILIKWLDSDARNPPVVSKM

This test addresses Bifunctional epoxide hydrolase 2 (Homo sapiens) (UniProt P34913). Nature of the test: sEH enzyme activity blockers – biochemical, human sEH, primary screen (AID 707). The note with it: recombinant human sEH enzymatic activity assay; at 2 µM; active compounds read high.
The term inhibition denotes the change of the read-out against control, counted positive when it falls. Take `CN(C)c1cccc(C(=O)NCC2(N(C)C)CCCCC2)c1`: the inhibition was inactive: -6.3%. As to `O=C(OC1CN2CCC1CC2)C(CO)(c1ccccc1)c1ccccc1` (stereo not drawn), the inhibition is inactive: 1.2%.

As to `CC(C)N1C(=O)CC2(CCN(CCOC(=O)C(O)(c3ccccc3)c3ccccc3)CC2)C1=O`, the inhibition was inactive: -8.4%.

The record behind these values is PubChem BioAssay AID707 (Columbia University Molecular Screening Center, 2007).
